{"source": "patent US10456414B2", "about": "“Methods for treating HCV” (priority 2011, dated 2019)", "key": {"[1]": {"test_system": "Huh-7 cells carrying an HCV genotype 1a replicon", "conditions": "with 320 nM Compound 10 and the highest concentration of the listed compound"}, "[2]": {"test_system": "Huh-7 cells carrying a HCV genotype 1a replicon", "test": "Cytotoxicity combination studies with Compound 4, MacSynergy II"}, "[3]": {"conditions": "in combination with Compound 4, mean ± standard deviation"}}, "data": [{"smiles": "NC(=O)c1ncn([C@@H]2O[C@H](CO)[C@@H](O)[C@H]2O)n1", "note": "[Ribavirin, 1-β-D-ribofuranosyl-1H-1,2,4-Triazole-3-carboxamide, reference compound]", "values": [{"measurement": "Cytotoxicity at Highest Concentration of Compound Combinations (% inhibition on cell growth)", "setting": "[1]", "value": "14.0 ± 4.4", "unit": "%"}, {"measurement": "Interaction (cytotoxicity)", "setting": "[2]; in combination with Compound 4", "value": "Additivity (Additivity: ≤25 and >−25 nM^2%)"}, {"measurement": "Antagonism Volume (cytotoxicity)", "setting": "[2]; [3]", "value": "−1 ± 2", "unit": "nM^2%"}, {"measurement": "Synergy Volume (cytotoxicity)", "setting": "[2]; [3]", "value": "4 ± 3", "unit": "nM^2%"}]}]}
